The source of these data is patent US6538106B1, “Compositions and methods for treating infections using analogues of indolicidin” (priority 1996, dated 2003).

Data set [1] in a line: Single and multiple dose toxicity in different formulations. It is filed as in vivo, outbred ICR mice. Conditions: for dose up to which no toxicity is shown: ip. As to the method:
The single dose toxicity of MBI 10CN and MBI 11CN in different formulations is also examined in outbred ICR mice (Table 16). Intraperitoneal injection (groups of 2 mice) of MBI 10CN in formulation D show no toxicity up to 29 mg/kg and under the same conditions MBI 11CN show no toxicity up to 40 mg/kg.
Intravenous injection (groups of 10 mice) of MBI 10CN in formulation D show a maximum tolerated dose (MTD) of 5.6 mg/kg (Table 16). Injection of 11 mg/kg gave 40% toxicity and 22 mg/kg result in 100% toxicity. Intravenous injection of MBI 11CN in formulation C (lyophilized) show a MTD of 3.0 mg/kg. Injection at 6.1 mg/kg result in 10% toxicity and at 12 mg/kg 100% toxicity.
If the peptide solution is not lyophilized before injection, but used immediately after preparation, an increase in toxicity is seen, and the maximum tolerated dose can decrease by up to four-fold. For example, an intravenous injection of MBI 11CN as a non-lyophilized solution, formulation C1, at 1.5 mg/kg results in 20% toxicity and at 3.0 mg/kg gave 100% toxicity. HPLC analyses of the non-lyophilized and lyophilized formulations indicate that the MBI 11CN forms a complex with polysorbate, and this complexation of the peptide reduces its toxicity in mice.
In addition, mice are multiply injected by an intravenous route with MBI 11CN (Table 17). In one representative experiment, peptide administered in 10 injections of 0.84 mg/kg at 5 minute intervals is not lethal. However, two injections of peptide at 4.1 mg/kg administered with a 10 minute interval results in 60% mortality.

The nature of data set [2]: Solubility in broth (visual inspection). The class given is physicochemical. On the procedure:
Solubility of the peptide analogue in formulation buffer is an additional parameter that may be examined. Several different assays may be used, such as appearance in buffer. Briefly, peptide analogue is suspended in solution, such as broth or formulation buffer. The appearance is evaluated according to a scale that ranges from (a) clear, no precipitate, (b) light, diffuse precipitate, to (c) cloudy, heavy precipitate. Finer gradations may be used. In general, less precipitate is more desirable. However, some precipitate may be acceptable.
The solubility of peptide analogues is assessed in calcium and magnesium supplemented Mueller Hinton broth by visual inspection. The procedure employed is that used for the broth dilution assay except that bacteria are not added to the wells. The appearance of the solution in each well is evaluated according to the scale: (a) clear, no precipitate, (b) light diffuse precipitate and (c) cloudy, heavy precipitate.

A short description of data set [3]: Acute single dose toxicity in isotonic saline (ip, iv, sc). The class given is in vivo, Swiss CD1 mice. Conditions: 5 days. As to the method:
In vivo toxicity of an analogue is measured through administration of a range of doses to animals, typically mice, by a route defined in part by the intended clinical use. […]. Analogues less toxic than indolicidin are preferred.
The acute, single dose toxicity of various indolicidin analogues is tested in Swiss CD1 mice using various routes of administration. In order to determine the inherent toxicities of the peptide analogues in the absence of any formulation/delivery vehicle effects, the peptides are all administered in isotonic saline with the final pH between 6 and 7.
Intraperitoneal route. […]. […] The LD50 values are calculated using the method of Reed and Muench (J. of Amer. Hyg. 27: 493-497, 1938).
Intravenous route. […]. […].
Subcutaneous route. The toxicity of MBI 11CN is also determined after subcutaneous (SC) administration. […]. After administration, the mice are observed for a period of 5 days. None of the animals died at any of the dose levels within the 5 day observation period. […]. […] These symptoms are reversible, disappearing in all mice by the second day of observations.

In data set [4] the test system is sheep RBC. The experiment in a line: Red blood cell (RBC) lysis assay. It is filed as cell-based. Conditions: for RBC lysis grouping / comparison: compared with MBI 11CN (low lysis) and Gramicidin-S (high lysis); for % lysis at 5 μg/ml / % lysis at 50 μg/ml / % lysis at 500 μg/ml: sheep RBC 1% (v/v), 1 hour at 37° C.; for % lysis at 5 μg/ml: 5 μg/ml peptide; for % lysis at 50 μg/ml: 50 μg/ml peptide; for % lysis at 500 μg/ml: 500 μg/ml peptide. On the procedure: Generally, the analogue will be in a suitable formulation buffer. […] An analogue that is not lytic, or is only moderately lytic, as exemplified in Example 8, is desirable and is suitable for further screening.
A red blood cell (RBC) lysis assay is used to group peptides according to their ability to lyse RBC under standardized conditions compared with MBI 11CN and Gramicidin-S. Peptide samples and washed sheep RBC are prepared in isotonic saline with the final pH adjusted to between 6 and 7. Peptide samples and RBC suspension are mixed together to yield solutions that are 1% (v/v) RBC and 5, 50 or 500 μg/ml peptide. Assay mixtures are incubated for 1 hour at 37° C. with constant shaking, centrifuged, and the supernatant is measured for absorbance at 540 nm, which detects released hemoglobin. The percentage of released hemoglobin is determined by comparison with a set of known standards lysed in water. Each set of assays also includes MBI 11CN (500 μg/ml) and Gramicidin-S (5 μg/ml) as “low lysis” and “high lysis” controls, respectively.

The nature of data set [5]: In vitro lifetime of free peptide in plasma. The class given is in vitro ADME, sheep. As to conditions: for apparent half-life of free peptide: sheep plasma, 37° C., 100 μg/mL.
The nature of data set [6]: Toxicity of APS-modified and unmodified MBI 11CN, single iv dose. It is filed as in vivo, Swiss CD-1 mice. As to conditions: for % Dead / Cumulative Dead / No. Surviving (cumulative): iv; for MTD: highest dose giving 100% survival.
Data set [7] is described as follows: Peptide levels in plasma in vivo after iv or ip administration. More on the design: species or system CD1 ICRBR strain mice. On the procedure: Peptide levels in plasma in vivo are measured after iv or ip administration of 80-100% of the maximum tolerated dose of peptide analogue in either formulation C1 or D. MBI 11CN in formulation C1 is injected intravenously into the tail vein of CD1 ICRBR strain mice. At various times post-injection, mice are anesthetized and blood is drawn by cardiac puncture. Blood from individual mice is centrifuged to separate plasma from cells. Plasma is then analyzed by reversed phase HPLC column. […] Each data point represents the average blood level from two mice. In this assay, the detection limit is approximately 1 μg/ml, less than 3% of the dose administered.
The earliest time point at which peptide can be measured is three minutes following injection, thus, the maximum observed concentration (in μg/ml) is extrapolated back to time zero (FIG. 12). The projected initial concentration corresponds well to the expected concentration of between 35 and 45 μg/ml.
In addition, MBI 11CN is also administered to CD1 ICRBR strain mice by a single ip injection at an efficacious dose level of 40 mg/kg. Peptide is administered in both formulations C1 and D to determine if peptide complexation has any effect on blood levels. At various times post injection, mice are anesthetized and blood is drawn by cardiac puncture. Blood is collected and analyzed as for the iv injection.

“And” between values parts separate entries of the source, which are not always exact repeats. Equal values may be shown once.

The LD50 is the dose at which mortality reaches 50%. Low values mean greater toxicity, high ones lower toxicity.

Turning to I L P W K W P W W P W R R [MBI 10CN], in data set [1] (formulation D), the “dose up to which no toxicity is shown” value was 29 mg/kg. Also, the toxicity in data set [1] (iv, formulation D, 11 mg/kg) stood at 40%; in data set [1] (iv, formulation D, 22 mg/kg), 100%. Also, the “Solubility in broth (visual appearance)” value in data set [2] (calcium and magnesium supplemented Mueller Hinton broth) is listed as “less soluble than MBI 11CN”.
In data set [3] (intraperitoneal), I L K K W V W W P W R R K [MBI 11F3CN] gave an LD90-100 of 80 mg/kg.
In the case of I L R W V W W V W R R K [MBI 11F4CN], the “RBC lysis grouping / comparison” value in data set [4] was “most insoluble and hemolytic of the peptides tested”. Further, the “Solubility ranking among the peptides tested” value in data set [2] is “most insoluble and hemolytic of the peptides tested”.
For the substance I L R W P W W P W R R K [MBI 11B7CN], in data set [3] (intraperitoneal), the LD90-100 is recorded as greater than 80 mg/kg.
As to “I L K K W V W W P W R R K [MBI 11F3CN-HCl]”, in data set [4], the “RBC lysis grouping / comparison” value is listed as “significantly less lytic than the other two variants”, the “% lysis at 5 μg/ml” value is listed as 1%, the “% lysis at 50 μg/ml” value is given as 6% and the “% lysis at 500 μg/ml” value turned out to be 17%. Besides, in data set [3] (intravenous), the LD90-100 is recorded as 12 mg/kg.
Consider “I L R W V W W V W R R K [MBI 11F4CN-HCl]”, for which, in data set [4], the “% lysis at 5 μg/ml” value is 4%, the “% lysis at 50 μg/ml” value is 32% and the “% lysis at 500 μg/ml” value was 38%. The substance also displayed an LD90-100 in data set [3] (intravenous) of 20 mg/kg.
With “I L R W P W W P W R R K [MBI 11B7CN-HCl]”, in data set [4], the “% lysis at 5 μg/ml” value was 4%, the “% lysis at 50 μg/ml” value is 13% and the “% lysis at 500 μg/ml” value stood at 46%. The substance also displayed an LD90-100 in data set [3] (intravenous) of 16 mg/kg.
i L K K W P W W P W R R k [MBI 11E3CN] returned an LD90-100 in data set [3] (intraperitoneal) of 40 mg/kg.
Turning to I L K K W P W W P W R R K [MBI 11CN], the “apparent half-life of free peptide” value in data set [5] (formulation C1) and in data set [5] (formulation D) was 1.5 h throughout. Also, the “peptide immediately released from formulation-peptide complex” value in data set [5] (formulation D, on addition to the blood) was “up to 50%”. For the same substance, the “dose up to which no toxicity is shown” value in data set [1] (formulation D) is 40 mg/kg. Moreover, the toxicity was 10% in data set [1] (iv, formulation C (lyophilized), 6.1 mg/kg); 100% in data set [1] (iv, formulation C (lyophilized), 12 mg/kg); 100% in data set [1] (iv, non-lyophilized solution, formulation C1, 3.0 mg/kg). Moreover, the “Result (mortality)” value in data set [1] (iv, formulation D, 2 injections of 4.1 mg/kg with 10 min interval, 4.1 mg/kg) is 60% and 66%. Also, the “% Dead” value was determined as 0% in data set [6] (3 mg/kg); 0% in data set [6] (5 mg/kg); 100% in data set [6] (8 mg/kg); 100% in data set [6] (10 mg/kg); 100% in data set [6] (13 mg/kg). In addition, the “Cumulative Dead” value turned out to be 0 in data set [6] (3 mg/kg); 0 in data set [6] (5 mg/kg); 6 in data set [6] (8 mg/kg); 12 in data set [6] (10 mg/kg); 18 in data set [6] (13 mg/kg). The “No. Surviving (cumulative)” value in data set [6] (3 mg/kg) is 12; in data set [6] (5 mg/kg) it was 6; in data set [6] (8 mg/kg), 0; in data set [6] (10 mg/kg), 0; in data set [6] (13 mg/kg), 0. The substance also had a 50% lethal dose (LD50) in data set [6] (single iv dose in 0.9% saline) of 7 mg/kg. Besides, the “dose with all subjects dying” value in data set [6] (single iv dose in 0.9% saline) amounted to 8 mg/mL. Besides, the MTD in data set [6] (single iv dose in 0.9% saline) was 5 mg/kg. Further, the “Free circulating peptide in blood” value in data set [7] (iv, formulation D) is on record as “not detectable”. In addition, in data set [7] (single ip 40 mg/kg, formulation C1), the “blood level after 60 minutes” value is “non-detectable levels”. In addition, the LD90-100 in data set [3] (intraperitoneal) came to 40 mg/kg.
In data set [6] (single iv dose in 0.9% saline), “I L K K W P W W P W R R K [MBI 11CN-TFA]” yielded an LD50 of 7 mg/kg, an LD90-100 of 8 mg/kg and an MTD of 5 mg/kg. Also, in data set [4], the “% lysis at 500 μg/ml” value was 9%.
Take Gramicidin-S [reference compound]: the “% lysis at 5 μg/ml” value in data set [4] amounted to 30%.
